The series is described as follows: Water solubility at room temperature (shake 5 hours, filtered supernatant, HPLC with calibration curve). The series is classed as physicochemical. Particulars: shaken 5 hours. Here is the method: An adequate amount of each sample was taken. Water (50% v/v) was added to each sample, and the mixture was shaken at room temperature for 5 hours. The supernatant was filtered through a filter, and diluted with a mixed solution of water 0.1% TFA/acetonitrile as necessary to give a sample solution. The concentration (mg/ml) of the sample solution was measured by high performance liquid chromatography (HPLC) with a calibration curve method, and taken as the solubility in water at room temperature.
HPLC Analysis Conditions:
HPLC purifications and analyses were carried out using an LC200 series Perkin Elmer apparatus, and diode array UV detector, using an Ultrasep C18 RP 100 column from Bischoff Chromatography.
On to “5alpha-Hydroxy-6beta-[2-(1H-imidazol-4-yl)ethylamino]cholestan-3beta-ol, malonate [Example 9]”, for which the “Solubility in water at room temperature” value was determined as 55 mg/mL.

In the case of “5alpha-Hydroxy-6beta-[2-(1H-imidazol-4-yl)ethylamino]cholestan-3beta-ol, L-Lactate [Example 16]”, the “Solubility in water at room temperature” value stood at 65 mg/mL. Consider “5alpha-Hydroxy-6beta-[2-(1H-imidazol-4-yl)ethylamino]cholestan-3beta-ol, benzene sulfonate [Example 6]”, for which the “Solubility in water at room temperature” value came out at 31.5 mg/mL. On to “5alpha-Hydroxy-6beta-[2-(1H-imidazol-4-yl)ethylamino]cholestan-3beta-ol, L-tartrate [Example 2]”, for which the “Solubility in water at room temperature” value was 42 mg/mL.

Values taken from patent publication US20140274984A1, “ACID ADDITION SALTS OF 5ALPHA-HYDROXY-6BETA-[2-(1H-IMIDAZOL-4-YL)ETHYLAMINO]CHOLESTAN-3BETA-OL” (INSERM (INSTITUT NATIONAL DE LA SANTÉ ET DE LA RECHERE …, priority 2011, published 2014).
